From patent US5886007A (priority 1997, dated 1999)

By UniProt entry, the sequences of proteins in these tests, tags left out. Residues count along the entry.
UniProt Q9JKC1, 24-597 limits assumed: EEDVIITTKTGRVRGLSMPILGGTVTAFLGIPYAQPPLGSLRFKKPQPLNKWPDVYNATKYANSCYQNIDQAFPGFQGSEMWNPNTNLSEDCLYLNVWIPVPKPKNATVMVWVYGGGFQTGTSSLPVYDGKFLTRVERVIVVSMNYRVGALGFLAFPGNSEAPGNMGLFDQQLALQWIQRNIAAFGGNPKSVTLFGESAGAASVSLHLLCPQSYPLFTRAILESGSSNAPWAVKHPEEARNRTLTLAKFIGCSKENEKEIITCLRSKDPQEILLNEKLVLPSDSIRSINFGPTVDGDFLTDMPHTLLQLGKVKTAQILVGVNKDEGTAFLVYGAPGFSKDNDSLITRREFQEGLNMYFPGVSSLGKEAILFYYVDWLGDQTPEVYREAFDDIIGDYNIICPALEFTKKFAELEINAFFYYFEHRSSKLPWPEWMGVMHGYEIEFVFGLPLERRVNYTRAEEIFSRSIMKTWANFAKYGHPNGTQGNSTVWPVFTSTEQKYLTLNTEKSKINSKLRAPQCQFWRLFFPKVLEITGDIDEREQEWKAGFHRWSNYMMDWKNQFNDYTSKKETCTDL

Molecular target: rat serum BChE (Rattus norvegicus, UniProt Q9JKC1)
Assay: Inhibition of rat serum BChE (spectrophotometric, butyrylthiocholine substrate)
Assay type: biochemical
Details: read-out: IC50 rat serum BChE, 10^-5 M BW284C51, compounds in salt form

c1ccc2c(NCCCCCCCCCNc3c4c(nc5ccccc35)CCCC4)c3c(nc2c1)CCCC3
pIC50: 6.69

pIC50: −log10 of the molar value.
